Values of other authors, collected in patent US6410340B1, “Use of an 8.4 kDa protein as an immunophilin reagent in protein binding assays for immunosuppressive drugs” (Children's Research Institute, priority 2000, dated 2002).

Conditions: patients; cited from earlier work

## cyclosporin A [CsA]
  fraction in the blood in the form of the parent compound: approximately ⅓
